Laboratory results from patent US12344646B2, “Antibody-TNF α fusion protein and its preparation and applications” (priority 2018, dated 2025).

Key:
[1] = system: Her-2 positive human gastric cancer cells NCI-N87; assay: Cytotoxicity of Her-2 antibody-TNFα fusion protein on NCI-N87 cells; format: cell-based; details: all concentrations in test; data not shown
Experimental: FIG. 7A: the NCI-N87 cells were incubated with the antibody-TNFα fusion protein at different concentrations for 1 day; and cell survival was detected using a CCK-8 kit.
The day before experiment, the cells ([…]) in growth medium (150 μl) were added onto a 96-well plate. […] Cell viability was detected using MTT assay and cell viability using CCK-8.

B16/Her-2 tumor = assay: In vivo anti-tumor activity on B16/Her-2 melanoma in mice; design: species or system mouse; details: 3 mg/kg i.v., twice a week for two weeks, C57/B6 mice

In the case of Trastuzumab, the “effect on survival of NCI-N87 cells” value [1] is reported as “did not substantially impact survival” and the “inhibition rate of B16/Her-2 tumor growth” value (B16/Her-2 tumor) is reported as 16%.
